The species entered for the test is Cavia porcellus. Conditions: Cardiac atrium.

SMILES strings stand for the structures.

`C[C@@H]1C[C@H]2[C@@H]3CCC4=CC(=O)C=C[C@]4(C)[C@@]3(F)[C@@H](O)C[C@]2(C)[C@@]1(O)C(=O)CO` [DEXAMETHASONE] came in with a Log B/F of 0.362.

The values are drawn from ChEMBL document CHEMBL1121439, “Accumulation of drugs by guinea pig isolated atria. Quantitative correlations” (J Med Chem, 1980).
